Yeast mating assay 2: variants of the scFv Ab-95

Data: MIT Lincoln Laboratory AlphaSeq set, Engelhart et al. 2022, doi:10.1038/s41597-022-01779-4, as distributed in FLAb.

Target: peptide PDVDLGDISGINAS, taken from heptad repeat 2 (HR2) of SARS-CoV-2 spike.

Each scFv is VH, the linker GGGGSGGGGSGGGGS, VL, as in the parent Ab-95, and differs from it in the CDRs of the light chain only.
VH: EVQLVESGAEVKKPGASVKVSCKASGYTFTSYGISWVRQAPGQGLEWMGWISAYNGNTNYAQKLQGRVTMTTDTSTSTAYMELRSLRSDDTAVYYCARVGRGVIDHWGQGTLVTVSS
VL: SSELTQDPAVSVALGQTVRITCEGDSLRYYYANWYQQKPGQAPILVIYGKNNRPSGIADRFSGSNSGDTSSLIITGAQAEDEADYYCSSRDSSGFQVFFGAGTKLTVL

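Phage display of a naive human antibody library on the peptide gave the parent. In library AAYL52, one, two or three CDR residues were substituted; doubles and triples were drawn at random. AlphaSeq pools MATa yeast showing the antibodies with MATalpha yeast showing the peptide. Pairs that bind mate more often; barcode pairs of the diploids are counted by sequencing. Scores were corrected for input abundance and mapped to Kd with protein pairs of known affinity run in the same pool. There are three technical replicates.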

Changes read parent residue, position, new residue, counted from the first residue of the VL shown. Every variant below is changed at R53 of the VL (sequential numbering). The Kd shown is the geometric mean over detected replicates; a lower Kd is a better binder. An entry "nd" has no value in the source: the pair was not observed among the diploids in any replicate. This suggests poor binding but is not conclusive. Nonspecific signal, from three strains lacking the peptide, appeared in 28% of pairings of library AAYL52, centred on 8.2 µM (5% of these signals below 800 nM); values are not corrected for it. For each scFv, signals with the empty controls are counted beside the result. In this assay the parent's reference entry averaged 200 nM; its copy inside this library read 180 nM.

For R53S/F98H, the assay gave 1.4 µM (3 of 3 replicates; controls 4 of 9). With R53D/S89H/G94E the result was 3.4 µM (1 of 3 replicates; controls 2 of 9). Variant R53W/S93I gave nd (0 of 3 replicates; controls 1 of 9). Variant N51Y/R53M/S55T showed nd (0 of 3 replicates; controls 1 of 9). With D25Y/S26P/R53W the result was 12 µM (1 of 3 replicates; controls 3 of 9). With R53N/F98H the result was 3.4 µM (2 of 3 replicates; controls 0 of 9).

Variant R53F showed 2.8 µM (1 of 3 replicates; controls 1 of 9). With S26F/A32N/R53K the result was 6.6 µM (1 of 3 replicates; controls 3 of 9). Variant Y31F/R53P/Q96R gave 29 µM (3 of 3 replicates; controls 2 of 9). Variant R53L/R90G gave nd (0 of 3 replicates; controls 0 of 9). For G49K/K50E/R53F, the assay gave nd (0 of 3 replicates; controls 0 of 9). Variant R53E/S89M showed nd (0 of 3 replicates; controls 2 of 9).

Variant E23P/D25V/R53W showed 5.9 µM (2 of 3 replicates; controls 5 of 9). Variant R53P/S55R/F98Y gave 4.7 µM (3 of 3 replicates; controls 1 of 9). For R53G/S89F/Q96M, the assay gave 24 µM (3 of 3 replicates; controls 5 of 9). Variant G49K/N51A/R53A gave 60 µM (2 of 3 replicates; controls 1 of 9). Variant R28L/R53W/G94Q gave 19 µM (2 of 3 replicates; controls 4 of 9). With L27Q/R53T/S88L the result was 47 µM (2 of 3 replicates; controls 2 of 9).

Variant Y31P/R53H/R90I gave 5.4 µM (2 of 3 replicates; controls 6 of 9). Variant R28M/R53I/G94S gave 2.6 µM (2 of 3 replicates; controls 1 of 9). Variant E23W/K50G/R53Y gave 2.7 µM (3 of 3 replicates; controls 4 of 9). Variant R28D/N33I/R53S showed 11 µM (3 of 3 replicates; controls 3 of 9). Variant R53F/P54G/G94Y gave 9.9 µM (3 of 3 replicates; controls 6 of 9). Variant R53P/S88D/R90E showed nd (0 of 3 replicates; controls 0 of 9).

For S26V/R53Y/P54L, the assay gave 100 µM (1 of 3 replicates; controls 3 of 9). With N51A/R53V/Q96E the result was 2.5 µM (3 of 3 replicates; controls 5 of 9). Variant L27G/R53M/S93L gave 46 µM (2 of 3 replicates; controls 4 of 9). For N33C/R53A/P54G, the assay gave 35 µM (1 of 3 replicates; controls 1 of 9). With Y29N/R53D/G94I the result was 8.5 µM (3 of 3 replicates; controls 2 of 9). Variant R53H showed 160 nM (3 of 3 replicates; controls 3 of 9).

Variant Y30T/R53S/F95N gave 380 nM (3 of 3 replicates; controls 2 of 9). Variant A32I/R53F/S89F gave 31 µM (1 of 3 replicates; controls 1 of 9). For R28C/R53C/G94N, the assay gave 5.7 µM (2 of 3 replicates; controls 5 of 9). With E23H/N33A/R53L the result was nd (0 of 3 replicates; controls 0 of 9). Variant K50N/N52F/R53M showed 1.1 µM (2 of 3 replicates; controls 1 of 9). With Y29R/R53P the result was nd (0 of 3 replicates; controls 2 of 9).

Variant S26I/R53G/G94W gave 19 µM (1 of 3 replicates; controls 2 of 9). Variant R53K/R90M/V97G showed nd (0 of 3 replicates; controls 0 of 9). For A32G/R53Q/S92L, the assay gave 360 µM (1 of 3 replicates; controls 2 of 9). For R53D/Q96M/F98P, the assay gave 12 µM (3 of 3 replicates; controls 2 of 9). With D25R/Y30V/R53H the result was 1.2 µM (3 of 3 replicates; controls 4 of 9). With R53I/D91P/S93H the result was 6.3 µM (3 of 3 replicates; controls 6 of 9).